The results in this text go back to PubChem BioAssay AID504692 (The Scripps Research Institute Molecular Screening Center, 2011).

Amino acid sequences for entries named in this document (tags omitted).
UniProt P47898, whole entry, looked up: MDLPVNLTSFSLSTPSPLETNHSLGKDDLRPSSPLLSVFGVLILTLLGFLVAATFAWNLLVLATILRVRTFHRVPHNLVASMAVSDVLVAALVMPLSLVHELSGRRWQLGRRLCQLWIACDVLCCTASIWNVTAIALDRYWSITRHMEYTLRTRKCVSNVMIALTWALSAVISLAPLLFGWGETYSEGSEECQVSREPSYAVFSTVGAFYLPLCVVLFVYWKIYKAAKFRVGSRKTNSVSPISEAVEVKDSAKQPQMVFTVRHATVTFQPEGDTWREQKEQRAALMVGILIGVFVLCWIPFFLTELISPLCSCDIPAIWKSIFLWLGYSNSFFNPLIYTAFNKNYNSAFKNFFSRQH

Each structure is given as a SMILES string. The entries are a selection whose mix differs from that of the whole data set. Activity calls are given as the source filed them. No stated cut-off is given here; in the data, active means activation mostly above about 9.5% (no sharp cut-off); inactive means mostly below about 7.6%.

The target of the assay is 5-hydroxytryptamine receptor 5A (Homo sapiens) (UniProt P47898). Briefly: HTR5A agonists in luminescence cell assay, primary screen, counter-screen for OPRM1-OPRD1 heterodimer agonist project, full-deck HTS (AID 504692).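 Further: 0% = cells with vehicle only and 100% = reference agonist.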 The settings on record: cell-based, at 9.3 µM, stronger effect = higher value. On the technique in general: Counterscreens check selectivity or assay interference.
As to `CC(C)C[C@H](NC(=O)N1CCn2c1nc1ccccc12)C(=O)NCC1CCCO1` (some centres not stated), the activation is inactive: -2.96%.

Consider `CSc1nc(N)nc2c1ncn2CC(=O)N1CCN(c2ccccn2)CC1`, for which the activation was inactive: 0.29%.

Regarding `CC1CCCN(Cc2nc3c(c(=O)n(C)c(=O)n3C)n2CC(N)=O)C1` (configuration not stated), the activation is inactive: 3.21%.

`O=S(=O)(Cc1ccccc1)N1CCn2c(nc3ccccc32)C1`: the activation was inactive: -1.74%.

Consider `CCN(CC)S(=O)(=O)c1ccc(NC2CCN(Cc3ccccc3)CC2)nc1`, for which the activation is inactive: -1.31%.

`CN1CCN(c2nc3c(c(=O)n(C)c(=O)n3C)n2CC(N)=O)CC1`: the activation was inactive: 5.77%.

In the case of `COC(=O)C1(C)COP(=O)(Nc2ccccc2)OC1` (configuration not stated), the activation is inactive: -0.33%.

For `COc1ccc(Cc2nc3ccccc3n2CC(=O)N/N=C/c2ccc(O)cc2)cc1OC`, the activation is inactive: -0.21%.

Turning to `O=[N+]([O-])c1cccc(NC2=NCC(CBr)S2)c1` (configuration not stated), the activation is inactive: -0.84%.

In the case of `CC(C)Sc1nc2ccccc2n1CC(N)=O`, the activation was inactive: -2.26%.

`CCOC(=O)N1CCN(c2c(NC3CCN(Cc4ccccc4)CC3)c(=O)c2=O)CC1`: the activation was inactive: -3.21%.

With `CN(C)C1(c2nnnn2-c2ccc(Cl)cc2)CCCCC1`, the activation is inactive: 8.4%.

On to `O=C(Cn1cnc2ccccc21)N1CCN(S(=O)(=O)c2ccccc2)CC1`, for which the activation is inactive: 0.57%.

On to `Cc1nn(CC(=O)Nc2ccc3c(c2)nc2n3CCN(C3CCCCC3)C2)c(=O)c2ccccc12`, for which the activation was inactive: 5.91%.

As for `O=[N+]([O-])c1ccc(NC2CCN(Cc3ccccc3)CC2)c2ccncc12`, the activation was inactive: 6.6%.

As to `Cc1noc(C)c1S(=O)(=O)N(CC(=O)N1CCn2c1nc1ccccc12)c1ccc(C(C)C)cc1`, the activation is inactive: -1.66%.

For the compound `O=C(c1ccccc1Br)N1CCn2c1nc1ccccc12`, the activation is inactive: -1.36%.

As to `Cc1cccc(NC(=O)Cn2c(/C=C/c3ccccc3)nc3ccccc32)c1`, the activation was inactive: -2.08%.

`O=C(O)CNc1ccc([As](=O)(O)O)cc1`: the activation was inactive: 0.84%.

With `COC(=O)c1ccc(N2C(=O)CC(N3CCC(n4c(=O)[nH]c5ccccc54)CC3)C2=O)cc1` (configuration not stated), the activation is inactive: 7.99%.

For `O=C1CCC(=O)N1c1ccc(NC2CCN(Cc3ccccc3)CC2)c([N+](=O)[O-])c1`, the activation is inactive: -1.98%.

`COc1cccc(CNC(=O)CCNC(=O)N2CCn3c2nc2ccccc23)c1`: the activation is inactive: -1.21%.

Take `CCc1nc2ccccc2n1CC(=O)NC1CCS(=O)(=O)C1` (configuration not stated): the activation was inactive: 0.31%.

For the compound `COc1cccc(NC(=O)Cn2c(-c3cncs3)nc3ccccc32)c1`, the activation is inactive: -2.26%.

Turning to `Cc1cc(NC(=O)CSc2nc3ccccc3n2CC(=O)N2CCCCC2)no1`, the activation was inactive: -0.13%.

`Cc1ccc(-c2csc(N3CCN(c4cc5c(cc4Cl)nc(C)n5CCN4CCCCC4)CC3)n2)cc1`: the activation was inactive: 8.4%.

For the compound `Cn1c(=O)c2c(nc(CN3CCN(c4ccc(F)cc4)CC3)n2CCN2CCOCC2)n(C)c1=O`, the activation was inactive: 1.37%.

On to `COc1cc(NC(=O)Cn2c(-c3cncs3)nc3ccccc32)cc(OC)c1OC`, for which the activation was inactive: 1.49%.

Turning to `O=C(CCCN1CCC2(CC1)C(=O)NCN2c1ccccc1)c1ccc(F)cc1`, the activation is inactive: 0.68%.

Turning to `COC(=O)C[C@H](NC(=O)Cn1cnc2c(SC)nc(N)nc21)C(=O)OC`, the activation is inactive: 3.96%.

As for `Cn1c(=O)c2c(nc(NCCc3ccccc3)n2CC(=O)NCCc2ccccc2)n(C)c1=O`, the activation was inactive: 3.51%.

Consider `COc1ccc(Cc2nnc(NC(=O)Cn3cnc4c3c(=O)n(C)c(=O)n4C)s2)cc1`, for which the activation was inactive: 3.28%.

As to `CC(C)Oc1cccnc1N(C)C1CCN(Cc2ccccc2)CC1`, the activation is inactive: -2.62%.

As to `CCN(CC)CCn1c(=N)n(CC(O)c2ccco2)c2ccccc21` (configuration not stated), the activation is inactive: 4.92%.

Take `Cc1ccc2c(c1)C1CN(C)CCC1N2CC(=O)N(C)c1ccccc1` (configuration not stated): the activation is inactive: 6.23%.

As for `N#CCC(=O)N/N=C\c1ccccc1OC/C=C/c1ccccc1`, the activation was inactive: -3.6%.

Turning to `CCOC(=O)Nc1ccc2c(c1)nc1n2CCN(CCOC)C1`, the activation was inactive: 6.27%.

Take `COCCCNC(=O)Cn1cnc2c(OCc3ccccc3)ncnc21`: the activation was inactive: 3.78%.

With `Cc1ccc2c(c1)C1CN(C)CCC1N2C(=O)c1cccnc1Cl` (configuration not stated), the activation is inactive: -7.17%.

On to `CSc1nc(N)nc2c1ncn2CC(=O)N[C@H](CO)Cc1c[nH]c2ccccc12`, for which the activation is inactive: -3.07%.

As to `Cc1ccc2c(c1)C1CN(C)CCC1N2C(=O)Nc1ccc(Cl)cc1` (configuration not stated), the activation is inactive: 3.69%.

Regarding `O=P1(N(CCCl)CCCl)OCCCS1` (configuration not stated), the activation is inactive: 0.05%.

In the case of `O=[N+]([O-])c1ccccc1NC1CCN(Cc2ccccc2)CC1`, the activation was inactive: 5.48%.

For the compound `CC(C)[C@H](NC(=O)N1CCn2c1nc1ccccc12)C(=O)N[C@H](C(=O)O)c1ccccc1`, the activation was inactive: 2.01%.

For the compound `O=C(Cn1cnc2ccccc21)NCCCN1CCOCC1`, the activation is inactive: -2.95%.

For the compound `Cn1c(=O)n(Cc2ccc(Cl)cc2)c(=O)c2c1nc1n2CCN1Cc1ccco1`, the activation is inactive: 2.98%.

As to `Cn1c(=O)c2ncn(CC(=O)NC3CCCCCC3)c2n(C)c1=O`, the activation was inactive: -6.17%.

As to `CC(C)[C@H](NC(=O)N1CCn2c1nc1ccccc12)C(=O)NCc1ccc2c(c1)OCO2`, the activation is inactive: 5.51%.

In the case of `COc1ccc(CNC(=O)Cn2cnc3c(=O)n(C)c(=O)n(C)c32)cc1`, the activation was inactive: 0.78%.

In the case of `Cn1c(=O)[nH]c(=O)c2c1nc(SCc1ccccc1Cl)n2CC(N)=O`, the activation is inactive: -0.82%.

Regarding `Cc1ccc2c(c1)[C@@H]1CN(C)CC[C@@H]1N2S(=O)(=O)c1ccc(F)cc1`, the activation was inactive: -11.6%.

As to `COc1ccccc1NS(=O)(=O)c1cc(NC(=O)Cn2cnc3c2c(=O)n(C)c(=O)n3C)ccc1C`, the activation is inactive: 0.52%.

As to `O=C(c1ccco1)N1CCn2c1nc1ccccc12`, the activation is inactive: 2.6%.

As to `COc1ccc(Cc2nc3ccccc3n2CC(=O)N/N=C/c2ccccc2)cc1OC`, the activation was inactive: 4.34%.

For the compound `Cn1c(=O)n(CC(=O)Nc2ccccc2)c2ccccc21`, the activation is inactive: 0.99%.

For `O=C(Nc1cc([As](=O)(O)O)ccc1O)c1ccccc1`, the activation is inactive: 6.56%.

On to `Cc1cc(C)c(CN2CCN(C(=O)Cn3cnc4c(OCc5ccccc5)ncnc43)CC2)c(C)c1`, for which the activation is inactive: 0.62%.

For the compound `C=CCc1cccc(CNc2nc3ccccc3n2CCN2CCOCC2)c1O`, the activation was inactive: 4.93%.

For `COc1ccc(N2CCn3c2nc2c3c(=O)n(CCCc3ccccc3)c(=O)n2C)c(OC)c1`, the activation is inactive: -2.02%.

In the case of `COc1ccccc1CNc1nc2ccccc2n1CCN1CCCCC1`, the activation is inactive: 0.44%.

As for `c1ccc(CN2CCC3(CC2)Nc2ccccc2S3)cc1`, the activation is inactive: -4.12%.

`COc1ccc(CNc2nc3ccccc3n2CCN2CCCCC2)c(OC)c1`: the activation is inactive: 3.57%.

As to `CCSc1nnc(NC(=O)Cn2cnc3c2c(=O)n(C)c(=O)n3C)s1`, the activation is inactive: -0.13%.

In the case of `Cc1nc2cc(C(F)(F)F)ccc2n1C1CCN(Cc2nnnn2Cc2ccc3c(c2)OCO3)CC1`, the activation is inactive: -8.02%.

Regarding `CC1CN(Cc2nc3c(c(=O)[nH]c(=O)n3C)n2CC(N)=O)CC(C)O1` (configuration not stated), the activation is inactive: 3.96%.

As for `Cn1c(=O)[nH]c(=O)c2c1nc(CN1CCN(c3ccccc3F)CC1)n2CC(N)=O`, the activation was inactive: -0.37%.

Regarding `Cc1ccc(CNC(=O)CCNC(=O)N2CCn3c2nc2ccccc23)cc1`, the activation is inactive: 0.33%.
